Source: paper PMC10760395, “The functionality of a therapeutic antibody candidate restored by a single mutation from proline to threonine in the variable region” (Human Vaccines & Immunotherapeutics, 2023)

Biological target: T1, endothelin B receptor (ETB) (Homo sapiens (species  in …, UniProt P24530))
T1 construct: also called CHO-ETB; source: CHO cell line established with ETB (CHO-ETB), on cells
Experiment: flow cytometry on cells; CHO-ETB cells (CHO-WT as control) incubated overnight at 4°C with antibodies from 0.01 nM to 100 nM; detected with Alexa-Fluor 488 goat anti-mouse IgG or F(ab')2 goat anti-human IgG Fc; normalised MFI fitted with one site specific binding; apparent Kd
Settings: one partner purified

| Binder | Kd [nM] |
| --- | --- |
| xiRB49-P125T (antibody, V domains shown) VH: QVQLQQPGAALVKPGASVKLSCKASGYTFISYWMLWVKQRPGRGLEWIGRIDPDSGGTKYNEKFKSKATLTVDKSSSTAYMQLSSLTSEDSAVYYCAREGDYAWFAYWGQGTLVTVSA VL: DVLMTQTPLSLPVSLGDQASISCRSSQSIVHSNGNTYLEWYLQKPGQSPKLLIYKVSNRFSGVPDRFSGSGSGTDFTLKISRVEAEDLGVYYCFQGSHVPWTFGGGTKLEIK | 0.8 |
| Fab-xiRB49-P125T (Fab, V domains shown) VH: QVQLQQPGAALVKPGASVKLSCKASGYTFISYWMLWVKQRPGRGLEWIGRIDPDSGGTKYNEKFKSKATLTVDKSSSTAYMQLSSLTSEDSAVYYCAREGDYAWFAYWGQGTLVTVSA VL: DVLMTQTPLSLPVSLGDQASISCRSSQSIVHSNGNTYLEWYLQKPGQSPKLLIYKVSNRFSGVPDRFSGSGSGTDFTLKISRVEAEDLGVYYCFQGSHVPWTFGGGTKLEIK | 13.6 |
